Measured values: ChEMBL document CHEMBL1135311, “N-Cycloalkanoyl-L-phenylalanine derivatives as VCAM/VLA-4 antagonists” (Bioorg Med Chem Lett, 2002)

Protein sequences, listed by entry. Tags and fused reporters are not part of them.
UniProt P05556, whole entry: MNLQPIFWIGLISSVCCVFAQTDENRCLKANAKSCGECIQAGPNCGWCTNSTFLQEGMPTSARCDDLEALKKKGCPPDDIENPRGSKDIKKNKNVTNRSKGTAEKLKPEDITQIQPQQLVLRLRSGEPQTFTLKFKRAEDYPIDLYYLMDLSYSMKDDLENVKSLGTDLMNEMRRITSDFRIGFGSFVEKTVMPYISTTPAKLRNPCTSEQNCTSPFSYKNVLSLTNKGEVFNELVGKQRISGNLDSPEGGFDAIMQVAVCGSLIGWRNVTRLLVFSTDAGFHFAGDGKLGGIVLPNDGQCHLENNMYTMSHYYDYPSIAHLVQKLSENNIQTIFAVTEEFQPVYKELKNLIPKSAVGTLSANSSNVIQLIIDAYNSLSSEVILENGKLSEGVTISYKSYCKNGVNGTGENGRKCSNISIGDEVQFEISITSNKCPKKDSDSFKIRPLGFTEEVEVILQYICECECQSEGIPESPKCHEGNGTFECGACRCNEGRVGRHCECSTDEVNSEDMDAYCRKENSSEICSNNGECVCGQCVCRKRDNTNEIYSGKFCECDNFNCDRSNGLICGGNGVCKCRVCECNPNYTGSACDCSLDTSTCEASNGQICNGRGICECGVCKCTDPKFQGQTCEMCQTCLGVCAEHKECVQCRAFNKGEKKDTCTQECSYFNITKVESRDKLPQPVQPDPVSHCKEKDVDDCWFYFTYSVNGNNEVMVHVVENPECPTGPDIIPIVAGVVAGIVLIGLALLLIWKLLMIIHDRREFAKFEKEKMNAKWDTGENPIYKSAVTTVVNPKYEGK
UniProt P13612, whole entry: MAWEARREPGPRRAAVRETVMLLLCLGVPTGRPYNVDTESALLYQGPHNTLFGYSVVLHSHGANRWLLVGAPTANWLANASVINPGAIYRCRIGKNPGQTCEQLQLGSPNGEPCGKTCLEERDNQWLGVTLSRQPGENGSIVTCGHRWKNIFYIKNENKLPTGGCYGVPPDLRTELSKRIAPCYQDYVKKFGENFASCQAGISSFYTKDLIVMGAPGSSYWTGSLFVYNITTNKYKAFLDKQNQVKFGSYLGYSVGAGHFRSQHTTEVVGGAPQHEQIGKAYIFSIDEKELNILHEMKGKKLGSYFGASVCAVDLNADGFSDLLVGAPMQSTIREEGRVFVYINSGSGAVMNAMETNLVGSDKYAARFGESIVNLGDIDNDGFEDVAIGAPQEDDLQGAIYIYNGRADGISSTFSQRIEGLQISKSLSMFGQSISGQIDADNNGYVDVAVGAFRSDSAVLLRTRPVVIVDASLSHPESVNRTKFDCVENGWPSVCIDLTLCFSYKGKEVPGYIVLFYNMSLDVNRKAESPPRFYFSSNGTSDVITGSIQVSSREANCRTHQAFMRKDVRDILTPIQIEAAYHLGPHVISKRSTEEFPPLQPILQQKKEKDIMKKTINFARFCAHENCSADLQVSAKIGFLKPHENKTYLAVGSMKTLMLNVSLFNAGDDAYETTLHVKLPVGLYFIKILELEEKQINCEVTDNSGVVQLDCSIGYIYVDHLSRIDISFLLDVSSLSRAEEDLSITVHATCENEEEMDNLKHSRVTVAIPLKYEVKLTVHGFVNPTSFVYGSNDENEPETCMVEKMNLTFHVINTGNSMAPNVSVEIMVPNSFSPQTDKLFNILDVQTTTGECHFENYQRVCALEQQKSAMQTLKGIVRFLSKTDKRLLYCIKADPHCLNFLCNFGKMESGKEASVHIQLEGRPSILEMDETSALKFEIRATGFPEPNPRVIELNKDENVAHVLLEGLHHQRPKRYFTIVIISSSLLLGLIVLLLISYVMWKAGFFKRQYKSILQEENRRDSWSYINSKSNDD

Tests used:
Integrin alpha-4/beta-1 [1] = biological target: T1, Integrin alpha-4/beta-1 (Homo sapiens, UniProt P05556+P13612); test: Inhibitory binding concentration determined against VCAM/VLA-4 in Ramos; assay type: protein-complex assay
Integrin alpha-4/beta-1 [2] = biological target: T1, Integrin alpha-4/beta-1; test: Inhibitory binding concentration determined against VCAM/VLA-4 in ELISA; assay type: protein-complex assay

Row | SMILES | IC50 (Integrin alpha-4/beta-1 [1]) [nM] | IC50 (Integrin alpha-4/beta-1 [2]) [nM]
1 | COc1ccc(CC2(C(=O)N[C@@H](Cc3ccc(NC(=O)c4c(Cl)cccc4Cl)cc3)C(=O)O)CCCCC2)cc1 | 250 | 
2 | CNC(=O)N(C)CCC1(C(=O)N[C@@H](Cc2ccc(NC(=O)c3c(Cl)cccc3Cl)cc2)C(=O)O)CCCC1 |  | 1.15
3 | CC(=O)NCCC1(C(=O)N[C@@H](Cc2ccc(NC(=O)c3c(Cl)cccc3Cl)cc2)C(=O)O)CCCC1 | 8 | 
